Test results taken from article PMC10655782 (Alzheimer's & Dementia : Translational Research & Clinical …, 2023).

Amino acid sequences for entries named in this document (tags omitted). Residues count along the entry.
UniProt O15357, 420-878: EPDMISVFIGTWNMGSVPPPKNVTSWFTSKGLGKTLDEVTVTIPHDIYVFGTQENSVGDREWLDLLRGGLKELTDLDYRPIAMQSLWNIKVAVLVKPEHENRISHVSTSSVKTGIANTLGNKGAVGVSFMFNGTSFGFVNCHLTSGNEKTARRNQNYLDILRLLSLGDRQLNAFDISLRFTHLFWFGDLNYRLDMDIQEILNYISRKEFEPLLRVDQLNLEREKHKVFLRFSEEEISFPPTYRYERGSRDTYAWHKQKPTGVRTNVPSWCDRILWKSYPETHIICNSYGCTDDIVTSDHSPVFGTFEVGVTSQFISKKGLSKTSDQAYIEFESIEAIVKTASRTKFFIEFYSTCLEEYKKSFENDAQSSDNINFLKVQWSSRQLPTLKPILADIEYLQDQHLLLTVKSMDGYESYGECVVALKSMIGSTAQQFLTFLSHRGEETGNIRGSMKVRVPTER

Assays:
human SHIP1 Ptase‐C2 = molecular target: T1, human SHIP1 Ptase‐C2 (Homo sapiens, UniProt Q92835); assay: Malachite green enzyme assay, hSHIP1^395‐898 Ptase‐C2, substrate PtdIns; type: biochemical; settings: SHIP1 versus SHIP2 Ptase‐C2
T1 sequence (Q92835 395-898): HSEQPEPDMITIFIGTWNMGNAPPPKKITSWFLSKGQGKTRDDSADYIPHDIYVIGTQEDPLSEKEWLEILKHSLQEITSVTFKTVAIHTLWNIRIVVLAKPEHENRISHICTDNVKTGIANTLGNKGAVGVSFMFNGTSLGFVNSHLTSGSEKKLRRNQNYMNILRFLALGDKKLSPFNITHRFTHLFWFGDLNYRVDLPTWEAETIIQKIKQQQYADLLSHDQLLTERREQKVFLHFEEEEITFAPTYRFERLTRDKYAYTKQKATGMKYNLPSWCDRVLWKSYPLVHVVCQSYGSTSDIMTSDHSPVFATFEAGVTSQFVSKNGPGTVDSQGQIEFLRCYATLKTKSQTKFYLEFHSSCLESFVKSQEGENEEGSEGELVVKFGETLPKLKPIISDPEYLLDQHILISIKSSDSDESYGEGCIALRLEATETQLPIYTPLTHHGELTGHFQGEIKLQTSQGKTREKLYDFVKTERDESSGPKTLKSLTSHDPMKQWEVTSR

pAKT/tAKT in THP1 cells = assay: AKT signaling assay in THP1 cells; type: cell-based, human; settings: 90 min treatment, geometric mean
human SHIP2 Ptase‐C2 = human SHIP2 Ptase‐C2 (Homo sapiens, UniProt O15357); assay: biochemical

SMILES	Selectivity (human SHIP1 Ptase‐C2)	Signaling IC50 (reduction in the ratio pAKT/tAKT) (pAKT/tAKT in THP1 cells)	IC50 (human SHIP2 Ptase‐C2)
CC(=O)C1=C(C)Nc2sc(C(=O)c3ccc(Cl)c(Cl)c3)c(N)c2C1c1cccnc1 (centres unmarked) [Compound 2]	>16	12.4 μM	> 300 µM
CC(C)c1ccc(C2C(C#N)=C3N=C(N)c4ccccc4N3C3=C2C(=O)CCC3)cc1 (centres unmarked) [Compound 3]	>33	5.60 μM	> 900 µM
CC(C)CCC[C@@H](C)[C@H]1CC[C@H]2[C@@H]3CCC4C[C@H](N)CC[C@]4(C)[C@H]3CC[C@]12C (stereo partly drawn) [Compound 13, 3α‐aminocholestane, reference compound]	>4		> 900 µM
Clc1ccc(COc2cncc(-c3cnn(C4CCNCC4)c3)c2)c(Cl)c1 [Compound 23, 3‐((2,4‐Dichlorobenzyl)oxy)‐5‐(1‐(piperidin‐4‐yl)‐1H‐pyrazol‐4‐yl)pyridine, reference compound]	1	6.52 μM	252 µM
